Literature values, collected in patent US20260382581A1, “COMPOSITIONS COMPRISING CYTISINE IN THE TREATMENT AND/OR PREVENTION OF ADDICTION IN SUBJECTS IN NEED THEREOF” (published 2026).

Columns and labels:
smokers [1] = settings: EAGLES, U.S. region; listed as Varenicline; cited from earlier work
smokers [2] = settings: in vivo; cited from earlier work
[3] = test system: neuronal alpha4, beta2 (α4β2) receptors; settings: cited from earlier work

SMILES	CAR weeks 9-24 (95% CI) (smokers [1])	comparative efficacy in smoking cessation (smokers [2])	binding to neuronal α4β2 receptors [3]
c1cnc2cc3c(cc2n1)[C@@H]1CNC[C@H]3C1	16.1 (14.0-18.4) %	more effective than single NRT and bupropion	
CN1CCCC1c1cccnc1 (stereo not drawn)			bind strongly and preferentially
